Only a part is listed here, and it is no random draw. Records with an inconclusive call do not appear. Calls of active or inactive are those of the source. Rule for the calls, unless noted: active = hit-call score of the fitted dose curve at least 0.9, where 1 is the maximum; inconclusive = response in the unintended direction; inactive = score below 0.9.
Tests used:
[1] = ATG_XTT_Cytotoxicity: Cytotoxicity Assessment in the Attagene TRANS-FACTORIAL HepG2 Assay (AID 2283584)
Procedure, shortened: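 HepG2 human liver cells, transiently transfected with multiple GAL4-UAS reporter units, were dosed and read at 24 h by XTT as cell number. Loss of signal was fitted relative to DMSO negative control baseline.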

Chains of the proteins cited; added tags and fusions are not shown.
UniProt P04637, whole entry: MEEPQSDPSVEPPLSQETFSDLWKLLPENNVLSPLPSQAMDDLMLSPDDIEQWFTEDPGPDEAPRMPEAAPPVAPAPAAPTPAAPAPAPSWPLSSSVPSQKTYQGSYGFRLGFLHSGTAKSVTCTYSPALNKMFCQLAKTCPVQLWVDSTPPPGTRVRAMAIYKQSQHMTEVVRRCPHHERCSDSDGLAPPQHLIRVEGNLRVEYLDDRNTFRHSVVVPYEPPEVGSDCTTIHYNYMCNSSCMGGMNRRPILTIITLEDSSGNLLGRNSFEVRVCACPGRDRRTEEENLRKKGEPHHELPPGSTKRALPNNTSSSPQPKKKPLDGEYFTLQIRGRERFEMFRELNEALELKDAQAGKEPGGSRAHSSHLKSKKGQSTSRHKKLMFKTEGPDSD

[2] = read-out: Tumor necrosis factor receptor 1 (TNFRSF1A), TNFRSF1A (gene 7132); test: LTEA_HepaRG_TNFRSF1A: Life Technologies and Expression Analysis (LTEA) Assay for Tumor necrosis factor receptor 1 (TNFRSF1A) using HepaRG (AID 2283535; active = hit-call score of the fitted dose curve at least 0.9, where 1 is the maximum; inactive = score below 0.9); details: actives raise or lower the signal; mRNA level, 48 h
Procedure, shortened: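 Differentiated human HepaRG cells were exposed in duplicate for 48 h in serum-free induction medium to eight concentrations (top 100 uM, half-log steps, 0.5% DMSO). TNFRSF1A mRNA was quantified by qRT-PCR, normalized to ACTB, GAPDH and POLR2A, then fitted bidirectionally against DMSO.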

[3] = read-out: Thyroid Hormone Responsive (THRSP), THRSP (gene 7069); test: LTEA_HepaRG_THRSP: Life Technologies and Expression Analysis (LTEA) Assay for Thyroid Hormone Responsive (THRSP) using HepaRG (AID 2283536; active = hit-call score of the fitted dose curve at least 0.9, where 1 is the maximum; inactive = score below 0.9); details: actives raise or lower the signal; mRNA level, 48 h
Procedure, shortened: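 mRNA induction or loss relative to 0.5% DMSO vehicle was fitted bidirectionally across an eight-point curve whose highest exposure was 100 uM. Human HepaRG liver cells received chemicals in duplicate over 48 h before RNA extraction.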

[4] = read-out: Cellular tumor antigen p53 (Homo sapiens) (UniProt P04637); test: LTEA_HepaRG_TP53: Life Technologies and Expression Analysis (LTEA) Assay for Tumor Protein P53 (TP53) using HepaRG (AID 2283537; active = hit-call score of the fitted dose curve at least 0.9, where 1 is the maximum; inactive = score below 0.9); details: actives raise or lower the signal; mRNA level, 48 h
Procedure, shortened: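 TP53 transcript measured by qRT-PCR, normalized to three housekeeping genes, after 48 h treatment of human HepaRG cultures with chemicals from 100 uM downward in half-log steps (0.5% DMSO vehicle, serum-free induction medium). Up- or down-regulation fitted against DMSO.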

[5] = read-out: UDP glucuronosyltransferase (UGT1A1), UGT1A1 (gene 54658); test: LTEA_HepaRG_UGT1A1: Life Technologies and Expression Analysis (LTEA) Assay for UDP glucuronosyltransferase (UGT1A1) using HepaRG (AID 2283538; active = hit-call score of the fitted dose curve at least 0.9, where 1 is the maximum; inactive = score below 0.9); details: actives raise or lower the signal; mRNA level, 48 h
Procedure, shortened: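 Differentiated human HepaRG cells in serum-free induction medium were exposed in duplicate for 48 h to eight half-log concentrations up to 100 uM in 0.5% DMSO. UGT1A1 mRNA was quantified by TaqMan qRT-PCR, normalized to ACTB, GAPDH and POLR2A, and fitted bidirectionally against DMSO.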

[6] = read-out: UDP glucuronosyltransferase (UGT1A6), UGT1A6 (gene 54578); test: LTEA_HepaRG_UGT1A6: Life Technologies and Expression Analysis (LTEA) Assay for UDP glucuronosyltransferase (UGT1A6) using HepaRG (AID 2283539; active = hit-call score of the fitted dose curve at least 0.9, where 1 is the maximum; inactive = score below 0.9); details: actives raise or lower the signal; mRNA level, 48 h
Procedure, shortened: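 Human HepaRG cells were dosed for 48 h in serum-free induction medium with 0.5% DMSO vehicle, eight-point half-log series from 100 uM, in duplicate. UGT1A6 mRNA was measured by qRT-PCR, normalized to ACTB, GAPDH, POLR2A, and fitted bidirectionally against DMSO.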

[7] = read-out: X-box binding protein 1 (XBP1), XBP1 (gene 7494); test: LTEA_HepaRG_XBP1: Life Technologies and Expression Analysis (LTEA) Assay for X-box binding protein 1 (XBP1) using HepaRG (AID 2283540; active = hit-call score of the fitted dose curve at least 0.9, where 1 is the maximum; inactive = score below 0.9); details: actives raise or lower the signal; mRNA level, 48 h
Procedure, shortened: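 Differentiated human HepaRG cells in serum-free induction medium were exposed in duplicate for 48 h to eight half-log concentrations up to 100 uM in 0.5% DMSO. XBP1 mRNA was quantified by qRT-PCR, normalised to ACTB, GAPDH and POLR2A, with bidirectional fitting against DMSO.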

[8] = LTEA_HepaRG_LDH_cytotoxicity: Cytotoxicity Assessment in the Life Technologies and Expression Analysis (LTEA) Assay (AID 2283563)
Procedure, shortened: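 Differentiated human HepaRG cells, plated 48 h beforehand, were switched to serum-free induction medium and exposed for 48 h to eight half-log concentrations (top 100 uM) in 0.5% DMSO. LDH was measured in spent medium; activity was fitted relative to DMSO vehicle.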

[9] = Tanguay_ZF_120hpf_MORT_legacy: (Legacy) Oregon State University Tanguay Lab 120 Hour Post-fertilization zebrafish Assay for Mortality (AID 2283633);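 note: fitted as increase in binary mortality versus DMSO negative control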
Procedure, shortened: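 Dechorionated Tropical 5D wild-type zebrafish embryos, one per well from 6 hpf, were statically exposed at 28C in the dark until 120 hpf (0.64% DMSO final). Mortality was scored as present/absent by brightfield microscopy, fitted positively versus DMSO.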

[10] = Tanguay_ZF_120hpf_YSE_legacy: (Legacy) Oregon State University Tanguay Lab 120 Hour Post-fertilization zebrafish Assay for Yolk Sac Edema (AID 2283634)
Procedure, shortened: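 Tropical 5D wild-type embryos, dechorionated with pronase at 4 hpf, were exposed singly from 6 hpf to 120 hpf under static, sealed, dark conditions at 28C with 0.64% DMSO final. Yolk sac edema was scored present/absent by brightfield microscopy.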

[11] = Tanguay_ZF_120hpf_AXIS_legacy: (Legacy) Oregon State University Tanguay Lab 120 Hour Post-fertilization zebrafish Assay for Body Axis Malformation (AID 2283635)
Procedure, shortened: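 Tropical 5D wild-type zebrafish embryos, dechorionated with pronase at 4 hpf, were placed singly in wells at 6 hpf and exposed statically to test chemical (0.64% DMSO final) at 28C until 120 hpf, then scored by brightfield for body axis defects.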

[12] = Tanguay_ZF_120hpf_SNOU_legacy: (Legacy) Oregon State University Tanguay Lab 120 Hour Post-fertilization zebrafish Assay for Snout Malformation (AID 2283637)
Procedure, shortened: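 Snout malformation read as a yes/no call on brightfield images of 120 hpf larvae (Tropical 5D strain). Static exposure began at 6 hpf on dechorionated embryos in 0.64% DMSO, with gain of signal analysed versus DMSO controls.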

[13] = Tanguay_ZF_120hpf_JAW_legacy: (Legacy) Oregon State University Tanguay Lab 120 Hour Post-fertilization zebrafish Assay for Jaw Malformation (AID 2283638)
Procedure, shortened: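 Tropical 5D wild-type embryos, dechorionated with pronase at 4 hpf, were placed singly per well at 6 hpf and statically exposed at 28C until 120 hpf (0.64% DMSO final). Jaw malformation scored as present/absent by brightfield microscopy at 120 hpf, analyzed relative to DMSO.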

[14] = Tanguay_ZF_120hpf_OTIC_legacy: (Legacy) Oregon State University Tanguay Lab 120 Hour Post-fertilization zebrafish Assay for Otic Vesicle Malformation (AID 2283639)
Procedure, shortened: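 Tropical 5D wild-type zebrafish embryos were exposed statically in sealed, foil-covered plates at 28C until 120 hpf, with 0.64% (vol/vol) DMSO final. Otic vesicle malformation was scored present/absent by brightfield microscopy, with DMSO as baseline.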

[15] = Tanguay_ZF_120hpf_PE_legacy: (Legacy) Oregon State University Tanguay Lab 120 Hour Post-fertilization zebrafish Assay for Pericardial Edema (AID 2283640)
Procedure, shortened: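 Tropical 5D wild-type zebrafish embryos were exposed statically to 120 hpf at 28C, sealed and foil-covered, in 0.64% DMSO final. Pericardial edema was scored present/absent by brightfield microscopy; dead embryos were not scored.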

[16] = Tanguay_ZF_120hpf_CFIN_legacy: (Legacy) Oregon State University Tanguay Lab 120 Hour Post-fertilization zebrafish Assay for Caudal Fin Malformation (AID 2283649)
Procedure, shortened: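 Tropical 5D wild-type embryos, dechorionated with pronase at 4 hpf, were placed singly in wells at 6 hpf and statically exposed to compound at 28C until 120 hpf (0.64% DMSO). Caudal fin malformation was scored present/absent by brightfield microscopy.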

[17] = Tanguay_ZF_120hpf_PIG_legacy: (Legacy) Oregon State University Tanguay Lab 120 Hour Post-fertilization zebrafish Assay for Pigmentation Malformation (AID 2283650)
Procedure, shortened: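 Pronase dechorionation at 4 hpf; embryos plated at 6 hpf, one per well; static exposure, sealed and foil-covered, 28C, to 120 hpf; pigmentation read by brightfield, binary; DMSO 0.64% baseline, 5uM trimethyltin chloride positive control.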

[18] = Tanguay_ZF_120hpf_CIRC_legacy: (Legacy) Oregon State University Tanguay Lab 120 Hour Post-fertilization zebrafish Assay for Circulatory Malformation (AID 2283651)
Procedure, shortened: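 Tropical 5D wild-type embryos, dechorionated with pronase at 4 hpf, were placed singly in wells at 6 hpf and exposed statically at 28C to 120 hpf (0.64% DMSO final). Circulatory malformation was scored present/absent by brightfield microscopy.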

[19] = Tanguay_ZF_120hpf_SWIM_legacy: (Legacy) Oregon State University Tanguay Lab 120 Hour Post-fertilization zebrafish Assay for Swim Bladder Malformation (AID 2283654);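 note: swim bladder malformation in each larva scored yes or no under brightfield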
Procedure, shortened: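 Embryos lacking chorions were exposed individually and statically to test chemical from 6 to 120 hpf at 28C, with 0.64% DMSO as vehicle. At 120 hpf, swim bladder malformation was recorded as present or absent by brightfield microscopy.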

[20] = Tanguay_ZF_120hpf_TRUN_legacy: (Legacy) Oregon State University Tanguay Lab 120 Hour Post-fertilization zebrafish Assay for Truncated Body (AID 2283655)
Procedure, shortened: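 Tropical 5D wild-type embryos, dechorionated with pronase at 4 hpf, were placed singly in wells at 6 hpf and statically exposed at 28C until 120 hpf, final DMSO 0.64%. Truncated body was scored present/absent by brightfield microscopy.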

Measured: AC50

CC(C)OP(OC(C)C)OC(C)C
inactive: [1]

CCOP(=O)(Cl)Cl
inactive: [1]

ClCCNCCCl
inactive: [1]

O=[N+]([O-])c1ccccc1[N+](=O)[O-]
inactive: [2] | [3] | [4] | [5] | [6] | [7] | [8] | [1] | [10] | [11] | [12] | [13] | [14] | [15] | [16] | [17] | [18] | [19] | [20]
active: [9] 14.3 µM

— PubChem BioAssay (EPA / NIEHS)
